{"sequences": {"note": "The chains behind the UniProt entries cited, without tags or fusion partners. Where a name states a change or a piece, a line headed by the entry shows the natural chain unless it says otherwise.", "UniProt P10275": "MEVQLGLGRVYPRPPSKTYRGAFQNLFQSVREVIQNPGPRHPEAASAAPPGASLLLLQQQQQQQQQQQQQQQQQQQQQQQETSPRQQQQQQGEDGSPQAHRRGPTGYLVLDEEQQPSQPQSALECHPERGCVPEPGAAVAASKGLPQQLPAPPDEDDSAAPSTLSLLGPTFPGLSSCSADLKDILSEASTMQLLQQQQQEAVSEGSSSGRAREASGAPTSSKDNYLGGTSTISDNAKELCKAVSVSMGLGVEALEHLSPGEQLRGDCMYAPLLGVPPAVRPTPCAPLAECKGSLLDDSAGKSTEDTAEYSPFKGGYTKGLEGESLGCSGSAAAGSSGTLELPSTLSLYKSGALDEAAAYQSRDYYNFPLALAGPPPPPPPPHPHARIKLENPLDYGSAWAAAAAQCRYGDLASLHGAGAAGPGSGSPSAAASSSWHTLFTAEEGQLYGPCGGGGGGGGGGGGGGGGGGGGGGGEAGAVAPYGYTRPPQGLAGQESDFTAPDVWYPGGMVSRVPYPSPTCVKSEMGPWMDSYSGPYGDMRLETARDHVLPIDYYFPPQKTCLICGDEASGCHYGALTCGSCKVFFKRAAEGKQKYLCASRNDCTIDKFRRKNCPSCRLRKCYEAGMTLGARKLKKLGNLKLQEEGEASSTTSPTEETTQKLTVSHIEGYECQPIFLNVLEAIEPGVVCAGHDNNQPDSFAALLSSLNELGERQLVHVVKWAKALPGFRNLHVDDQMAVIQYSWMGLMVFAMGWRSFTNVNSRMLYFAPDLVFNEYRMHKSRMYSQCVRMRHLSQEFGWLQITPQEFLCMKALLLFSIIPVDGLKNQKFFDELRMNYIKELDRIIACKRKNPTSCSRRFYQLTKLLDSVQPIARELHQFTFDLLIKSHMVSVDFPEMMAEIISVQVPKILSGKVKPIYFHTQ"}, "source": "ChEMBL document CHEMBL3862039", "about": "“Identification of Triptophenolide from Tripterygium wilfordii as a Pan-antagonist of Androgen Receptor” (ACS Med Chem Lett, 2016)", "key": {"PC-3": {"tested_on": "PC-3", "assay": "Antagonist activity at AR W741C/T877A double mutant (unknown origin) transfected in human PC3 cells assessed as inhibition of DHT-induced receptor transcriptional activation after 24 hrs by PSA-luciferase reporter gene assay", "assay_type": "cell-based"}, "Androgen receptor": {"target": "Androgen receptor (Homo sapiens, UniProt P10275)", "assay": "Inhibition of DHT-induced AR nuclear translocation in human LNCAP cells assessed as reduction in ratio of nuclear to cytoplasmic AR levels at 5 uM after 24 hrs by DAPI-staining based confocal microscopic analysis relative DHT", "assay_type": "cell-based"}}, "data": [{"smiles": "CC(C)c1ccc2c(c1O)CC[C@H]1C3=C(CC[C@]21C)C(=O)OC3", "note": "[TRIPTOPHENOLIDE]", "values": [{"measurement": "inhibition", "setting": "PC-3", "value": "Dose-dependent effect"}, {"measurement": "fold change (FC)", "setting": "Androgen receptor", "value": 3}]}]}
